According to PMC13642346, “Steric control of signaling bias in the immunometabolic receptor GPR84” (2026):

Key:
[1] = target: GPR84 (human GPR84, hGPR84) (Homo sapiens, UniProt Q9NQS5); assay: competition binding kinetics with [3H][…] (koff/kon); conditions: read-out: affinity calculated from rate constants; pH 7.4; orthosteric; one range printed for all three ligands
[2] = target: GPR84-Gi2α fusion protein (FLAG-GPR84-Gαi2) (Homo sapiens, UniProt Q9NQS5, R172A); assay: […]GTPγS binding, membranes; conditions: orthosteric agonist; 30 °C, pH 7.4, 1 µM GDP
[3] = target: GPR84-Gi2α fusion protein (FLAG-GPR84-Gαi2) (Homo sapiens, UniProt Q9NQS5, F187A); assay: […]GTPγS binding, membranes; conditions: orthosteric agonist; 30 °C, pH 7.4, 1 µM GDP
[4] = target: GPR84-Gi2α fusion protein (FLAG-GPR84-Gαi2) (Homo sapiens, UniProt Q9NQS5, L336A); assay: […]GTPγS binding, membranes; conditions: orthosteric agonist; 30 °C, pH 7.4, 1 µM GDP
GPR84-Gi complex = GPR84-Gi complex (Homo sapiens, UniProt Q9NQS5); assay: cryo-EM structure, […] Å; conditions: orthosteric; headgroup ring orientation ambiguous

[O-][n+]1cc(O)cc(CCCc2ccc(Cl)c(C(F)(F)F)c2)c1
Kd [1]: 1000 to 2000 pM | EC50 [2]: lacking detectable potency at Arg172^ECL2Ala GPR84 | EC50 [3]: 100 pM | EC50 [4]: 100 pM | cryo-EM structure, 3.03 Å (GPR84-Gi complex): we determined a cryo-EM structure of the GPR84-Gi complex with OX04529
